{
  "source": "patent US10927170B2",
  "about": "“Anti-claudin 1 monoclonal antibodies for the prevention and treatment of hepatocellular carcinoma” (INSTITUT HOSPITALIER UNIVERSITAIRE DE STRASBOURG, priority 2015, dated 2021)",
  "test_system": "HCV Jc1-infected Huh7.5.1^dif cells",
  "experiment": "186-gene HCC risk signature (nCounter, GSEA, nearest template prediction) in persistently HCV Jc1-infected Huh7.5.1^dif cells",
  "type": "cell-based, human",
  "conditions": "DAA 1 nM DCV+1 μM SOF; interferon alpha-2a 10 IU/ml; erlotinib 0.1 μM; pioglitazone 1 μM; metformin 3 μM; mAb 1, 10 and 100 μg/ml",
  "method": "Huh7.5.1 cells have already been described (Zhong et al., Proc Natl Acad Sci USA, 2005, 102(26): 9294-9299). For proliferation arrest and differentiation (Huh7.5.1^dif cells), 2.5.10^4 to 3.10^4 Huh7.5.1 cells were cultured in Dulbecco's Modified Eagle Medium (DMEM) containing 1% dimethylsulfoxide (DMSO).\nCell culture-derived HCVcc Jc1 (genotype 2a/2a) (Pietschmann et al., Proc Natl Acad Sci USA, 2006, 103(19): 7408-7413) were generated in Huh7.5.1 cells as previously described (Wakita et al., Nat Med., 2005, 11(7): 791-796). HCVcc infectivity was determined by calculating the 50% tissue culture infectious doses (TCID50) in infection experiments as previously described (Lindenbach et al., Science, 2005, 309(5734): 623-626). HCV infection was assessed by qRT-PCR of intracellular HCV RNA (Xiao et al., Gut, 2015, 64(3): 483-494) as well as by immunostaining using an HCV E2-specific AP33 antibody as previously described (Krieger et al., Hepatology. 2010, 51(4): 1144-1157).\nLiver cells were lysed in TRI-reagent (Molecular Research Center), and RNA was purified using Direct-zol RNA MiniPrep (Zymo Research) according to the manufacturer's instructions. RNA quantity and quality were assessed using NanoDrop (ThermoScientific) and Bioanalyzer 2100 ([…]). Gene expression profiling was performed using 250-500 ng total RNA by using nCounter Digital Analyzer system (NanoString). […]",
  "data": [
    {"substance": "interferon alpha-2a: interferon-alpha 2a from Roche", "values": [
      {"measurement": "Reversal of HCC high-risk genes as shown by GSEA (FIG. 2A)", "result": "partially reverses"}
    ]}
  ]
}
